The values below come from paper PMC10252891, “Pharmacometabolic Effects of Pteryxin and Valproate on Pentylenetetrazole-Induced Seizures in Zebrafish Reveal Vagus Nerve Stimulation” (Cells, 2023).

Amino acid sequences for entries named in this document (tags omitted). A change or cut given only in a name is not applied to a line headed by its entry.
UniProt Q01650: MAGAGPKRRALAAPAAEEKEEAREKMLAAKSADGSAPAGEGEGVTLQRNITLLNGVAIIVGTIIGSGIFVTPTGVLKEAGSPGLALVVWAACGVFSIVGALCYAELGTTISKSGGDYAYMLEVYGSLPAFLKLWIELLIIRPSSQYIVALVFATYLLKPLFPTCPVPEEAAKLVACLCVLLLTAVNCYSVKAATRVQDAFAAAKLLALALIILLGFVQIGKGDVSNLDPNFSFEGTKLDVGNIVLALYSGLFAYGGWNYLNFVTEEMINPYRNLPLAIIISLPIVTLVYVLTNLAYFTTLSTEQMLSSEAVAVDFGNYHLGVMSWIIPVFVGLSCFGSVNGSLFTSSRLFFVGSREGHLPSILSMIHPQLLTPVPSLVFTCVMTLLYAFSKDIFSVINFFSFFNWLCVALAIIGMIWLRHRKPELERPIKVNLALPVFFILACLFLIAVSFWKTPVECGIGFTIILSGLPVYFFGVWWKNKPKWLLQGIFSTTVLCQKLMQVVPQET

Values joined by “and” are separate entries in the source; they are usually repeats but may differ in a detail not shown here. Identical values can stand only once.

One data set has as its target T1, LAT1 (Homo sapiens, UniProt Q01650).
T1 construct: expressed in transfected cells; host or cells: MDST8-LAT1 cells
As to the kind of experiment: [3H]-L-leucine uptake inhibition in MDST8-LAT1 cells. Format: cell-based. Conditions: preincubation 2 h, highest concentration 50 μM. Here is the method:
[3H]-L-Leucine uptake assay
[3H]-L-Leucine uptake assay was performed as previously described [Yan et al., 2021]. Cells were seeded in 96-well plates with opaque bottom (Corning, 353296) at 40-60% confluency, allowing them to attach for 48 hours in a fully supplemented media. Cells were preincubated with different concentrations of […]
PTX for 2 hours, then the cells were washed three times with pre-warmed Na+-free Hank's Balanced Salt […]
Solution (HBSS) containing 125 mM choline-Cl, 25 mM HEPES, 4.8 mM KCl, 1.2 mM MgSO4, 1.2 mM KH2PO4, 1.3 mM CaCl2 and 5.6 mM D-glucose (pH 7.4) and further incubated with the same solution for 7 minutes at 37 °C. [3H]-l-Leucine uptake was assessed in the same solution containing 10 nM “hot” [3H]-L-Leucine (60 Ci/mmol) (Anawa, 0140A-1) + 30 μM “cold” L-leucine. In case of 5 μM JPH203, the same procedure was followed without PTX preincubation. After 3 minutes, the solution was removed, and the cells were washed with ice-cold Na+-free HBSS to terminate the uptake. Cells were lysed with scintillation solvent MicroScint-20 (Perkin-Elmer Life Sciences, 6013621) and the radioactivity was measured with a scintillation counter (TopCount NXT, Perkin-Elmer Life Sciences).
*Yan R, Li Y, Müller J, Zhang Y, Singer S, Xia L, Zhong X, Gertsch J, Altmann KH, Zhou Q. Mechanism of substrate transport and inhibition of the human LAT1-4F2hc amino acid transporter. […]

Data set [1] in a line: LC-MS/MS quantification of whole-body uptake in immersed zebrafish larvae. Here is the method:
After immersion larvae were plated in 1% BSA for 15 s and washed thoroughly by shaking to remove all compounds from the larvae surface. […] For quantification, six larvae were pooled before homogenization. Three experiments were carried out in independent days.
These were homogenized with the Ultrasonic Processor UP50H (Hielscher): 1 cycle—60% amplitude. The run consisted of two cycles of 15 s with a rest of 50 s in ice for each sample. […] To 100 µL of homogenate 200 µL of the internal standard (IS) Rolipram (Sigma Aldrich, Buchs, Switzerland) (20 ng/mL) for the positive MS experiment, and VPA d-6 (Sigma Aldrich, Buchs, Switzerland) (50 µg/mL) for the negative MS experiment were added. Samples were vortexed for 10 s and then centrifuged at 12,000 rpm for 10 min at 4 °C. After centrifugation, 150 µL of supernatant was transferred into LC-MS vials already containing 120 µL of MilliQ water. Then, 10 µL was injected into the LC-MS/MS system.
A hybrid triple quadrupole 4000 QTRAP mass spectrometer (AB Sciex Concord, ON, Canada) was used with a Shimadzu UFLC (Shimadzu Corporation, Kyoto, Japan) with a cooled auto-sampler. The sample temperature was maintained at 4 °C in the auto-sampler prior to analysis. The LC column was Synergi 4 µm Fusion-RP 80Å C18 50 × 2 mm, Phenomenex, maintained at 45 °C. The system was operated first in positive and after in negative mode with the same elution mobile phases and gradient method. Mobile phases were as follows: water with 0.1% formic acid (solvent A) and methanol with 0.1% formic acid (solvent B). […] The flow rate was 0.80 mL/min. Peaks were integrated, and the analyst software version 1.6.2 (AB Sciex Concord, ON, Canada) was used for quantification. […] Negative mode: Valproic acid m/z 143→143, (IS: Valproic Acid-d6 149→149).

On the set-up of data set [2]: method as in PMID 22102402. The conditions noted are these: oral administration of 100 mg/kg; cited from earlier work.
[3] abbreviates: Pteryxin 20 µM, 5 min immersion.
[4] abbreviates: Pteryxin 20 µM, 30 min immersion.
Setting [5] is: Pteryxin 20 µM, 1 h immersion, listed as Pteryxin.

One may read the IC50 as the concentration at which inhibition is half-maximal. Lower therefore signals higher potency.

Regarding pteryxin [PTX], the IC50 against LAT1 is no less than 50 µM. Further, in data set [1] (PTX 20 µM, 1 h), the “concentration in larvae whole-body” value is recorded as 4.28 ± 0.28 µg/g. Besides, the “metabolic stability in zebrafish larvae” value in data set [1] (PTX 20 µM, whole-body concentration after 18 h not strongly decreased) is given as “metabolically stable”. Moreover, the “Measured concentration in larvae whole-body” value in data set [1] (Pteryxin 1 µM, 1 h immersion) is 468.7 ± 44.1 ng/g; in data set [1] (Pteryxin 10 µM, 1 h immersion), 1243.3 ± 201.3 ng/g and 3.2 ± 0.5 µM; in data set [1] (setting [3]), 820.0 ± 46.3 ng/g and 2.1 ± 0.1 µM; in data set [1] (setting [4]), 2530.0 ± 105.4 ng/g and 6.5 ± 0.3 µM; in data set [1] (setting [5]) it was 4280.0 ± 284.8 ng/g and 11.1 ± 0.7 µM; in data set [1] (Pteryxin 20 μM, 18 h immersion) it was 3406.7 ± 213.6 ng/g and 8.8 ± 0.5 µM. Besides, the “% Absorbed” value is given as 32.2% in data set [1] (Pteryxin 10 µM, 1 h immersion); 10.1% in data set [1] (setting [3]); 32.7% in data set [1] (setting [4]); 55% in data set [1] (Pteryxin 20 µM, 1 h immersion); 55.4% in data set [1] (setting [5]); 44.0% in data set [1] (Pteryxin 20 μM, 18 h immersion). For the same substance, in data set [1] (Pteryxin 20 μM, without larvae), the Measured concentration was 20.5 ± 0.1 µM. The “Cmax in mouse plasma” value in data set [2] is 976.04 ng/mL. For the same substance, in data set [2], the “estimated t1/2” value is listed as 1.46 h. Further, the “time of Cmax” value in data set [2] is 120 min.
